From patent US20160024487

Columns and labels:
[1] = tested on: Lys(Dnp)-ATNATVEPRIVGG-Lys(Abz)
[2] = tested on: Lys(Dnp)-ATNATTMPRIVGG-Lys(Abz)
[3] = tested on: Lys(Dnp)-ATNATLSPRIVGG-Lys(Abz)
[4] = tested on: Lys(Dnp)-ATNATIVPRIVGG-Lys(Abz)
[5] = tested on: Lys(Dnp)-EDQEDQVDPRIVGG-Lys(Abz)
[6] = tested on: Lys(Dnp)-ATNATX4X3PRIVGG-Lys(Abz), X4 = W, X3 = I
[7] = tested on: Lys(Dnp)-ATNATX4X3PRIVGG-Lys(Abz), X4 = D, X3 = Y
[8] = tested on: Lys(Dnp)-ATNATNFPRIVGG-Lys(Abz)
[9] = tested on: Lys(Dnp)-ATNATPSPRIVGG-Lys(Abz)
[10] = tested on: Lys(Dnp)-ATNATMLPRIVGG-Lys(Abz)
[11] = tested on: Lys(Dnp)-ATNATAYPRIVGG-Lys(Abz)
[12] = tested on: Lys(Dnp)-ATNATTAPRIVGG-Lys(Abz)
[13] = tested on: Lys(Dnp)-ATNATGFPRIVGG-Lys(Abz)
[14] = tested on: Lys(Dnp)-ATNATGMPRIVGG-Lys(Abz)
[15] = tested on: Lys(Dnp)-ATNATEWPRIVGG-Lys(Abz)
[16] = tested on: Lys(Dnp)-LSKNNAIEPRIVGG-Lys(Abz)
[17] = tested on: Lys(Dnp)-ATLDPRIVGG-Lys(Abz)
[18] = tested on: Lys(Dnp)-ATNATX4X3PRIVGG-Lys(Abz), X4 = D, X3 = G
[19] = tested on: Lys(Dnp)-ATNATSWPRIVGG-Lys(Abz)
[20] = tested on: Lys(Dnp)-ATNATVFPRIVGG-Lys(Abz)
[21] = tested on: Lys(Dnp)-ATNATIQPRIVGG-Lys(Abz)
[22] = tested on: Lys(Dnp)-ATNATX4X3PRIVGG-Lys(Abz), X4 = Q, X3 = Q
[23] = tested on: Lys(Dnp)-ATNATNSPRIVGG-Lys(Abz)
[24] = tested on: Lys(Dnp)-ATNATX4X3PRIVGG-Lys(Abz), X4 = E, X3 = F
[25] = tested on: Lys(Dnp)-ATNATX4X3PRIVGG-Lys(Abz), X4 = G, X3 = F
[26] = tested on: Lys(Dnp)-ATNATVSPRIVGG-Lys(Abz)
[27] = tested on: Lys(Dnp)-ATNATQIPRIVGG-Lys(Abz)
[28] = tested on: Lys(Dnp)-ATNATIPPRIVGG-Lys(Abz)
[29] = tested on: Lys(Dnp)-ATNATX4X3PRIVGG-Lys(Abz), X4 = S, X3 = W
[30] = tested on: Lys(Dnp)-STPSILPAPRIVGG-Lys(Abz)
[31] = tested on: Lys(Dnp)-ATNATPYPRIVGG-Lys(Abz)
[32] = tested on: Lys(Dnp)-ATNATWKPRIVGG-Lys(Abz)
[33] = tested on: Lys(Dnp)-ATNATMGPRIVGG-Lys(Abz)
[34] = tested on: Lys(Dnp)-ATNATPPPRIVGG-Lys(Abz)
[35] = tested on: Lys(Dnp)-ATNATGVPRIVGG-Lys(Abz)
[36] = tested on: Lys(Dnp)-ATNATX4X3PRIVGG-Lys(Abz), X4 = H, X3 = W
[37] = tested on: Lys(Dnp)-ATNATYGPRIVGG-Lys(Abz)
[38] = tested on: Lys(Dnp)-ATNATHTPRIVGG-Lys(Abz)
[39] = tested on: Lys(Dnp)-ATNATMEPRIVGG-Lys(Abz)
[40] = tested on: Lys(Dnp)-ATNATNQPRIVGG-Lys(Abz)
[41] = tested on: Lys(Dnp)-ATNATKFPRIVGG-Lys(Abz)
[42] = tested on: Lys(Dnp)-ATNATVRPRIVGG-Lys(Abz)
[43] = tested on: Lys(Dnp)-ATNATKTPRIVGG-Lys(Abz)
[44] = tested on: Lys(Dnp)-ATNATPDPRIVGG-Lys(Abz)

## Human plasma purified α-thrombin
[1]
  FIIa kcat/KM: 5400 M⁻¹ s⁻¹
  Specificity Ratio (FIIa/FXa): 50
  kcat/KM: 5400 M⁻¹ s⁻¹
[2]
  FIIa kcat/KM: 1200 M⁻¹ s⁻¹
  Specificity Ratio (FIIa/FXa): 99
  kcat/KM: 1200 M⁻¹ s⁻¹
[3]
  FIIa kcat/KM: 21000 M⁻¹ s⁻¹
  Functional Selectivity (Specificity*FIIa kcat/KM): 630000
  kcat/KM: 21000 M⁻¹ s⁻¹
[4]
  FIIa kcat/KM: 24000 M⁻¹ s⁻¹
  Functional Selectivity (Specificity*FIIa kcat/KM): 1.6e+06
  kcat/KM: 24000 M⁻¹ s⁻¹
[5]
  FIIa kcat/KM: 1800 M⁻¹ s⁻¹
  Functional Selectivity (Specificity*FIIa kcat/KM): 240000
  Specificity Ratio (FIIa/FXa): 133
  kcat/KM: 1800 M⁻¹ s⁻¹
[6]
  FIIa kcat/KM: 1900 M⁻¹ s⁻¹
  Specificity Ratio (FIIa/FXa): 10
[7]
  FIIa kcat/KM: 410 M⁻¹ s⁻¹
  Specificity Ratio (FIIa/FXa): 39
[8]
  kcat/KM: 780 M⁻¹ s⁻¹
[9]
  FIIa kcat/KM: 12000 M⁻¹ s⁻¹
  Specificity Ratio (FIIa/FXa): 28
  kcat/KM: 12000 M⁻¹ s⁻¹
[10]
  FIIa kcat/KM: 11000 M⁻¹ s⁻¹
  Specificity Ratio (FIIa/FXa): 20
  kcat/KM: 11000 M⁻¹ s⁻¹
[11]
  FIIa kcat/KM: 11000 M⁻¹ s⁻¹
  Functional Selectivity (Specificity*FIIa kcat/KM): 5.1e+06
  kcat/KM: 11000 M⁻¹ s⁻¹
[12]
  kcat/KM: 630 M⁻¹ s⁻¹
[13]
  kcat/KM: 1200 M⁻¹ s⁻¹
[14]
  kcat/KM: 1200 M⁻¹ s⁻¹
[15]
  kcat/KM: 390 M⁻¹ s⁻¹
[16]
  FIIa kcat/KM: 13000 M⁻¹ s⁻¹
  Functional Selectivity (Specificity*FIIa kcat/KM): 170000
  Specificity Ratio (FIIa/FXa): 13
  kcat/KM: 13000 M⁻¹ s⁻¹
[17]
  FIIa kcat/KM: 3300 M⁻¹ s⁻¹
  Functional Selectivity (Specificity*FIIa kcat/KM): 12000
  Specificity Ratio (FIIa/FXa): 4
  kcat/KM: 3300 M⁻¹ s⁻¹
[18]
  FIIa kcat/KM: 350 M⁻¹ s⁻¹
  Specificity Ratio (FIIa/FXa): 59
[19]
  kcat/KM: 1500 M⁻¹ s⁻¹
[20]
  Functional Selectivity (Specificity*FIIa kcat/KM): 1.3e+06
[21]
  FIIa kcat/KM: 44000 M⁻¹ s⁻¹
  Functional Selectivity (Specificity*FIIa kcat/KM): 1.2e+06
  kcat/KM: 44000 M⁻¹ s⁻¹
[22]
  FIIa kcat/KM: 10000 M⁻¹ s⁻¹
  Specificity Ratio (FIIa/FXa): 7
[23]
  kcat/KM: 640 M⁻¹ s⁻¹
[24]
  FIIa kcat/KM: 870 M⁻¹ s⁻¹
  Specificity Ratio (FIIa/FXa): 63
[25]
  FIIa kcat/KM: 1200 M⁻¹ s⁻¹
  Specificity Ratio (FIIa/FXa): 33
[26]
  Functional Selectivity (Specificity*FIIa kcat/KM): 650000
[27]
  FIIa kcat/KM: 7900 M⁻¹ s⁻¹
  Specificity Ratio (FIIa/FXa): 13
  kcat/KM: 7900 M⁻¹ s⁻¹
[28]
  FIIa kcat/KM: 1300 M⁻¹ s⁻¹
  Specificity Ratio (FIIa/FXa): 157
  kcat/KM: 1300 M⁻¹ s⁻¹
[29]
  FIIa kcat/KM: 1500 M⁻¹ s⁻¹
  Specificity Ratio (FIIa/FXa): 36
[30]
  FIIa kcat/KM: 9400 M⁻¹ s⁻¹
  Functional Selectivity (Specificity*FIIa kcat/KM): 380000
  Specificity Ratio (FIIa/FXa): 40
  kcat/KM: 9400 M⁻¹ s⁻¹
[31]
  FIIa kcat/KM: 14000 M⁻¹ s⁻¹
  Functional Selectivity (Specificity*FIIa kcat/KM): 2.3e+06
  kcat/KM: 14000 M⁻¹ s⁻¹
[32]
  FIIa kcat/KM: 13000 M⁻¹ s⁻¹
  Functional Selectivity (Specificity*FIIa kcat/KM): 4.2e+06
  kcat/KM: 13000 M⁻¹ s⁻¹
[33]
  FIIa kcat/KM: 5900 M⁻¹ s⁻¹
  Functional Selectivity (Specificity*FIIa kcat/KM): 640000
  kcat/KM: 5900 M⁻¹ s⁻¹
[34]
  kcat/KM: 850 M⁻¹ s⁻¹
[35]
  kcat/KM: 1200 M⁻¹ s⁻¹
[36]
  FIIa kcat/KM: 2800 M⁻¹ s⁻¹
  Specificity Ratio (FIIa/FXa): 9
[37]
  FIIa kcat/KM: 3700 M⁻¹ s⁻¹
  Specificity Ratio (FIIa/FXa): 88
  kcat/KM: 3700 M⁻¹ s⁻¹
[38]
  kcat/KM: 1500 M⁻¹ s⁻¹
[39]
  kcat/KM: 6800 M⁻¹ s⁻¹
[40]
  kcat/KM: 740 M⁻¹ s⁻¹
[41]
  kcat/KM: 750 M⁻¹ s⁻¹
[42]
  FIIa kcat/KM: 16000 M⁻¹ s⁻¹
  Specificity Ratio (FIIa/FXa): 37
  kcat/KM: 16000 M⁻¹ s⁻¹

## Human plasma purified alpha-thrombin
[43]
  FIIa kcat/KM: 610 M⁻¹ s⁻¹
  Specificity Ratio (FIIa/FXa): 8
[44]
  FIIa kcat/KM: 2000 M⁻¹ s⁻¹
  Specificity Ratio (FIIa/FXa): 2
